From patent US20090175786A1 (published 2009)

Chains of the proteins cited; added tags and fusions are not shown. Lines headed by an entry give the natural chain unless they say otherwise; changes in a name come on top.
UniProt P30550: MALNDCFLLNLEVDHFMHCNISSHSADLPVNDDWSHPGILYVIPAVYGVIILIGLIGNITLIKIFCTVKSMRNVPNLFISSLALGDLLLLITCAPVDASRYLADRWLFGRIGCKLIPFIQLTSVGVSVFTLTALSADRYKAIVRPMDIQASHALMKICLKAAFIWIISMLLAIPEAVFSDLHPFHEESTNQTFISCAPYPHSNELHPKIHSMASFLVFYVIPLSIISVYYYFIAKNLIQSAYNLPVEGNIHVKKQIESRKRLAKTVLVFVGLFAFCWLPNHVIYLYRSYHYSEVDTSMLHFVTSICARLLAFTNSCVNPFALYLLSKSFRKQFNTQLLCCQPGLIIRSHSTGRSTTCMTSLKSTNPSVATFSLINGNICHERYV

T1: neuromedin-B preferring receptor (NMB-R) of C6 rodent glioblastoma cells (rodent, UniProt P24053 1-390, limits assumed)
T1 construct: whole, on cells; also called C6/NMB-R
T1 sequence (looked up): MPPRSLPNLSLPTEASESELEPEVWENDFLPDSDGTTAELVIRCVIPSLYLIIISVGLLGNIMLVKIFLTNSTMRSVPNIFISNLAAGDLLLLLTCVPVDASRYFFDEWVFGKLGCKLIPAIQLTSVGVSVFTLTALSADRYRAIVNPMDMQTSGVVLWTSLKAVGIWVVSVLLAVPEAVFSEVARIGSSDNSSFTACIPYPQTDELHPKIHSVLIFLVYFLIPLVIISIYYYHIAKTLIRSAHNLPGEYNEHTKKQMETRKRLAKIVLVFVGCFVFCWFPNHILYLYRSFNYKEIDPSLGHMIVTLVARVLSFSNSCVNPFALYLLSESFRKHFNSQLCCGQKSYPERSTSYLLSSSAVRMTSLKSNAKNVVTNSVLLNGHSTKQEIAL


Assays:
[1] = target: T2, gastrin releasing peptide receptor (GRP-R), human (human, UniProt P30550 1-384); assay: 125I-BBN competition, PC3 cells
T2 construct: whole, on cells; also called GRP receptor; GRP-preferring receptor

[2] = target: T2, gastrin releasing peptide receptor …; assay: 125I-BBN competition, PC3 cells; remark: listed apart in the source
[3] = target: T2, gastrin releasing peptide receptor …; assay: 125I-BBN competition, PC3 cells; remark: listed apart in the source
[4] = target: T2, gastrin releasing peptide receptor …; assay: 125I-BBN competition, PC3 cells; remark: listed apart in the source
[5] = target: T2, gastrin releasing peptide receptor …; assay: 125I-BBN competition, PC3 cells; remark: listed apart in the source
[6] = target: T1, neuromedin-B preferring receptor …; assay: 125I-NMB competition, C6 cells
[7] = target: T2, gastrin releasing peptide receptor …; assay: 125I-BBN competition, PC3 cells; remark: listed apart in the source
[8] = target: T1, neuromedin-B preferring receptor …; assay: 125I-NMB competition, C6 cells; remark: listed apart in the source
[9] = target: T2, gastrin releasing peptide receptor …; assay: 125I-BBN competition, PC3 cells; remark: listed apart in the source
[10] = target: T2, gastrin releasing peptide receptor …; assay: 125I-BBN competition, PC3 cells; remark: listed apart in the source

Binder | IC50 [5] | IC50 [6] | also measured
FQWAVGHLL (N-terminus: DO3A-monoamide-Gly-4-aminobenzoic acid; residue 1 is D-Phe; C-terminal amide, also called L221) [DO3A-monoamide-G-Abz4-fQWAVGHLL-NH2] | – | – | IC50 [1]: 0.34 µM; IC50 [2]: 0.34 µM
FQWAVGHLM (N-terminus: DO3A-monoamide-Gly-4-aminobenzoic acid; residue 1 is D-Phe; C-terminal amide, also called L214; DO3A-monoamide-G-4-aminobenzoic acid-(D)-Phe-BBN(7-14)) [DO3A-monoamide-G-Abz4-fQWAVGHLM-NH2] | – | – | IC50 [2]: 0.018 µM; IC50 [3]: 0.018 µM
FQWAVGHLM (N-terminus: DO3A-monoamide-trans-4-aminomethylcyclohexane-1-carboxylic acid; residue 1 is D-Phe; C-terminal amide, also called L95) [DO3A-monoamide-trans-4-aminomethylcyclohexane-1-carboxylic acid-D-phenylalanine-BBN(7-14)] | – | – | IC50 [4]: 0.014 µM
KQWAVGHLM (N-terminus: DO3A-monoamide-trans-4-aminomethylcyclohexane-1-carboxylic acid; C-terminal amide, also called L99) [DO3A-monoamide-trans-4-aminomethylcyclohexane-1-carboxylic acid-Lys-BBN(7-14)] | – | – | IC50 [4]: 0.022 µM
AQWAVGHLM (N-terminus: N,N-dimethylglycine-Ser-Cys(Acm)-Gly-8-amino-3,6-dioxaoctanoic acid; residue 1 is D-Ala; C-terminal amide, also called L14) [N,N-dimethylglycine-Ser-Cys(Acm)-Gly-8-amino-3,6-dioxaoctanoic acid-Dala-BBN(7-14)] | 0.011 µM | – | –
RQWAVGHLM (N-terminus: N,N-dimethylglycine-Ser-Cys(Acm)-Gly-N-4-aminoethyl-N-1-piperazineacetic acid; C-terminal amide, also called L29) [N,N-dimethylglycine-Ser-Cys(Acm)-Gly-N-4-aminoethyl-N-1-piperazineacetic acid-Arg-BBN(7-14)] | 0.036 µM | – | –
KQWAVGHLM (N-terminus: N,N-dimethylglycine-Ser-Cys(Acm)-Gly-N-4-aminoethyl-N-1-piperazineacetic acid; C-terminal amide, also called L32) [N,N-dimethylglycine-Ser-Cys(Acm)-Gly-N-4-aminoethyl-N-1-piperazineacetic acid-Lys-BBN(7-14)] | 0.034 µM | – | –
SQWAVGHLM (N-terminus: N,N-dimethylglycine-Ser-Cys(Acm)-Gly-N-4-aminoethyl-N-1-piperazineacetic acid; C-terminal amide, also called L28) [N,N-dimethylglycine-Ser-Cys(Acm)-Gly-N-4-aminoethyl-N-1-piperazineacetic acid-Ser-BBN(7-14)] | 0.025 µM | 0.013 µM | IC50 [7]: 0.025 µM
GSCGGQWAVGHLM (residue 1 is N,N-dimethylglycine; Cys 3 S-acetamidomethyl (Acm); C-terminal amide) [N,N-dimethylglycine-Ser-Cys(Acm)-Gly-G-QWAVGHLM-NH2] | – | – | IC50 [7]: 0.025 µM
GSCGKKQWAVGHLM (residue 1 is N,N-dimethylglycine; Cys 3 S-acetamidomethyl (Acm); C-terminal amide) [N,N-dimethylglycine-Ser-Cys(Acm)-Gly-KK-QWAVGHLM-NH2] | – | – | IC50 [7]: 0.013 µM
GSCGKSQWAVGHLM (residue 1 is N,N-dimethylglycine; Cys 3 S-acetamidomethyl (Acm); C-terminal amide) [N,N-dimethylglycine-Ser-Cys(Acm)-Gly-KS-QWAVGHLM-NH2] | – | – | IC50 [7]: 0.0075 µM
QWAVGHLM (N-terminus: DO3A-monoamide-3-aminopropionic acid (Apa3); C-terminal amide) [DO3A-monoamide-Apa3-QWAVGHLM-NH2] | – | 0.0189 µM | –
DGQWAVGHLM (N-terminus: N,N-dimethylglycine-Ser-Cys(Acm)-Gly-8-amino-3,6-dioxaoctanoic acid; C-terminal amide, same M-N-O-P-G as printed for L20, other MS; also called L55) | 0.043 µM | – | –
QWAVGHLM (N-terminus: DO3A-monoamide-Nal1-Bip (L-1-Naphthylalanine, L-Biphenylalanine); C-terminal amide) [DO3A-monoamide-Nal1-Bip-QWAVGHLM-NH2] | – | 0.211 µM | –
QWAVGHLM (N-terminus: DO3A-monoamide-Nal1-Bpa4 (L-1-Naphthylalanine, 4-benzoylphenylalanine); C-terminal amide) [DO3A-monoamide-Nal1-Bpa4-QWAVGHLM-NH2] | – | 0.0899 µM | –
QWAVGHLM (N-terminus: DO3A-monoamide-Gly-3-methyl-4-aminobenzoic acid; C-terminal amide, also called L242) [DO3A-monoamide-Gly-3-methyl-4-aminobenzoic acid-BBN(7-14)] | – | 0.0022 µM | –
QWAVGHLM (N-terminus: DO3A-monoamide-Gly-4-hydrazinobenzoyl; C-terminal amide, also called L202) [DO3A-monoamide-Gly-4-hydrazinobenzoyl-BBN(7-14)] | – | 0.0027 µM | –
GQWAVGHLM (N-terminus: DO3A-monoamide-4-aminobenzoic acid; C-terminal amide, also called L204) [DO3A-monoamide-4-aminobenzoic acid-Gly-BBN(7-14)] | – | 0.0012 µM | IC50 [8]: 0.00119 µM
QWAVGHLM (N-terminus: DO3A-monoamide-Gly-4′-Amino-2′-methyl biphenyl-4-carboxylic acid; C-terminal amide, also called L206) [DO3A-monoamide-Gly-4′-Amino-2′-methyl biphenyl-4-carboxylic acid-BBN(7-14)] | – | 0.0013 µM | –
QWAVGHLM (N-terminus: DO3A-monoamide-N-4-aminoethyl-N-1-piperazine-acetic acid; C-terminal amide, also called L89) [DO3A-monoamide-N-4-aminoethyl-N-1-piperazineacetic acid-BBN(7-14)] | – | 0.114 µM | –
LWATGHFM (N-terminus: DO3A-monoamide-Gly-4-aminobenzoic acid; C-terminal amide, also called L227) [DO3A-monoamide-G-Abz4-LWATGHFM-NH2] | – | – | IC50 [2]: 0.039 µM; IC50 [7]: 0.028 µM; IC50 [9]: 0.028 µM
EQKLGNQWAVGHLM (residue 1 is pyroglutamate; Lys 3 side chain: DO3A-monoamide-Gly-4-aminobenzoic acid; C-terminal amide, also called L218) [>EQ-[K(DO3A-monoamide-G-Abz4)-LGNQWAVGHLM-NH2] | – | – | IC50 [2]: 0.053 µM
YQWAVAHFL (N-terminus: DO3A-monoamide-Gly-4-aminobenzoic acid; residue 1 is D-Tyr; Ala2 = beta-alanine; Nle = norleucine; C-terminal amide, also called L222; Universal agonist) [DO3A-monoamide-G-Abz4-yQWAV-Ala2-HF-Nle-NH2] | – | – | IC50 [2]: 0.046 µM; IC50 [10]: 0.046 µM
FQWAVAHFL (N-terminus: DO3A-monoamide-Gly-4-aminobenzoic acid; residue 1 printed f (D-Phe) in Table 13, Phe / L-phenylalanyl in Table 3 and paragraph 422; Ala2 = beta-alanine; Nle = norleucine; C-terminal amide, also called L223; Universal agonist) [DO3A-monoamide-G-Abz4-fQWAV-Ala2-HF-Nle-NH2] | – | – | IC50 [2]: 0.052 µM; IC50 [10]: 0.052 µM
LWAVGSFM (N-terminus: DO3A-monoamide-Gly-4-aminobenzoic acid; C-terminal amide, also called L225) [DO3A-monoamide-G-Abz4-LWAVGSFM-NH2] | – | – | IC50 [2]: 0.24 µM; IC50 [9]: 0.24 µM
QWAVGHFL (N-terminus: DO3A-monoamide-Gly-4-aminobenzoic acid; C-terminal amide, also called L300) [DO3A-monoamide-G-Abz4-QWAVGHFL-NH2] | – | – | IC50 [1]: 0.0025 µM; IC50 [2]: 0.0025 µM
YGNLWATGHFM (residue 1 is D-Tyr (y); C-terminal amide, also called neuromedin analog) [yGNLWATGHFM-NH2] | – | – | IC50 [8]: 0.00016 µM; IC50 [9]: 0.885 µM
GQWAVGHLM (N-terminus: N,N-dimethylglycine-Ser-Cys(Acm)-Gly-2,3-diaminopropionic acid-8-amino-3,6-dioxaoctanoic acid; C-terminal amide, same M-N-O-P-G as printed for L26, other MS; also called L61) | 0.043 µM | – | –

Further lines, with some results ahead:

IC50 [5] | IC50 [6] | Binder | also measured
0.036 µM | – | SQWAVGHLM (N-terminus: N,N-dimethylglycine-Ser-Cys(Acm)-Gly-8-amino-3,6-dioxaoctanoic acid; C-terminal amide, also called L11) [N,N-dimethylglycine-Ser-Cys(Acm)-Gly-8-amino-3,6-dioxaoctanoic acid-Ser-BBN(7-14)] | –
0.026 µM | – | RQWAVGHLM (N-terminus: N,N-dimethylglycine-Ser-Cys(Acm)-Gly-N-1-piperazineacetic acid; C-terminal amide, also called L35) [N,N-dimethylglycine-Ser-Cys(Acm)-Gly-N-1-piperazineacetic acid-Arg-BBN(7-14)] | –
0.038 µM | – | SQWAVGHLM (N-terminus: N,N-dimethylglycine-Ser-Cys(Acm)-Gly-N-1-piperazineacetic acid; C-terminal amide, also called L34) [N,N-dimethylglycine-Ser-Cys(Acm)-Gly-N-1-piperazineacetic acid-Ser-BBN(7-14)] | –
– | 0.0022 µM | GSCGSKQWAVGHLM (residue 1 is N,N-dimethylglycine; Cys 3 S-acetamidomethyl (Acm); C-terminal amide) [N,N-dimethylglycine-Ser-Cys(Acm)-Gly-SK-QWAVGHLM-NH2] | –
– | 0.0031 µM | QWAVGHLM (N-terminus: DO3A-monoamide-8-aminooctanoic acid; C-terminal amide, control; also called DO3A monoamide-aminooctanyl-BBN [7-14]; control) [DO3A-monoamide-Aoc-QWAVGHLM-NH2 (DO3A-monoamide-8-amino-octanoic acid-BBN (7-14))] | –
– | 0.0052 µM | QWAVGHLM (N-terminus: DO3A-monoamide-4-aminobutanoic acid (Abu4); C-terminal amide) [DO3A-monoamide-Abu4-QWAVGHLM-NH2] | –
0.036 µM | – | RGQWAVGHLM (N-terminus: N,N-dimethylglycine-Ser-Cys(Acm)-Gly-8-amino-3,6-dioxaoctanoic acid; C-terminal amide, same M-N-O-P-G as printed for L57, other MS; also called L22) [N,N-dimethylglycine-Ser-Cys(Acm)-Gly-8-amino-3,6-dioxaoctanoic acid-Arg-Gly-BBN(7-14)] | –
0.037 µM | – | DGQWAVGHLM (N-terminus: N,N-dimethylglycine-Ser-Cys(Acm)-Gly-8-amino-3,6-dioxaoctanoic acid; C-terminal amide, same M-N-O-P-G as printed for L55, other MS; also called L20) | –
– | 0.077 µM | QWAVGHLM (N-terminus: DO3A-monoamide-Cha-Cha (Cha = L-Cyclohexylalanine); C-terminal amide) [DO3A-monoamide-Cha-Cha-QWAVGHLM-NH2] | –
– | 0.0151 µM | QWAVGHLM (N-terminus: DO3A-monoamide-Gly-3′-Aminobiphenyl-3-carboxylic acid; C-terminal amide, also called L207) [DO3A-monoamide-Gly-3′-Aminobiphenyl-3-carboxylic acid-BBN(7-14)] | –
0.038 µM | – | GQWAVGHLM (N-terminus: N,N-dimethylglycine-Ser-Cys(Acm)-Gly-8-amino-3,6-dioxaoctanoic acid-2,3-diaminopropionic acid; C-terminal amide, same M-N-O-P-G as printed for L59, other MS; also called L24) | –
– | 0.0121 µM | QWAVGHLM (N-terminus: N,N-dimethylglycine-Ser-Cys(Acm)-Gly-N-1-piperazineacetic acid-8-amino-3,6-dioxaoctanoic acid; C-terminal amide, also called L36) | –
0.014 µM | – | GQWAVGHLM (N-terminus: N,N-dimethylglycine-Ser-Cys(Acm)-Gly-Arg-8-amino-3,6-dioxaoctanoic acid; C-terminal amide, also called L52) [N,N-dimethylglycine-Ser-Cys(Acm)-Gly-Arg-8-amino-3,6-dioxaoctanoic acid-Gly-BBN(7-14)] | –
0.042 µM | – | GQWAVGHLM (N-terminus: N,N-dimethylglycine-Ser-Cys(Acm)-Gly-8-amino-3,6-dioxaoctanoic acid-2,3-diaminopropionic acid; C-terminal amide, same M-N-O-P-G as printed for L24, other MS; also called L59) | –

Where two headings read alike, the source gives them in different places.
